In patent US20150174068A1, “Apparatus, Composition, and Related Methods for Transdermal Delivery of Active Ingredients” (CURE IP HOLDINGS, LLC, priority 2011, published 2015):

Experiment: In vitro transdermal delivery of various active ingredients, Franz diffusion cells, excised human epidermis
Details: in Proprietary Encapsulation II (colloidal), over 24 hours, radiolabeled active

insulin
amount of active ingredient that penetrated the epidermis: Greater than 0.02%
